Literature values, collected in US20150376254A1, “GAMMA-MSH ANALOGUES” (TXP Pharma GmbH, priority 2014, published 2015).

Chains of the proteins cited; added tags and fusions are not shown. Lines headed by an entry give the natural chain unless they say otherwise; changes in a name come on top.
UniProt Q01726: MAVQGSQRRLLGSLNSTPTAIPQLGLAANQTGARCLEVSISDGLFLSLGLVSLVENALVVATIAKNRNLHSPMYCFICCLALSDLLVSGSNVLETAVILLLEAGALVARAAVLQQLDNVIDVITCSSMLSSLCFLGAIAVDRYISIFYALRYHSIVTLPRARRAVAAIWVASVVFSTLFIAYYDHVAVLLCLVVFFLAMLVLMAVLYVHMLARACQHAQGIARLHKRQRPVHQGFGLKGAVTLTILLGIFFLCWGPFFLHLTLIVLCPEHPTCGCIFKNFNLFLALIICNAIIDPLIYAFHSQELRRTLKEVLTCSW

Biological target: MC1r (Homo sapiens, UniProt Q01726)
Details: J. Med. Chem. 2005, 48, 1839-1848

γ-MSH
binding affinity against the MC1r: weak
